Results from patent US12421217B2, “Pyrazine derivative or salt thereof, and use of same” (FUJIFILM Corporation, priority 2019, dated 2025).

The chains behind the UniProt entries cited, without tags or fusion partners. Residues count along the entry.
UniProt Q02127, 31-395 limits assumed: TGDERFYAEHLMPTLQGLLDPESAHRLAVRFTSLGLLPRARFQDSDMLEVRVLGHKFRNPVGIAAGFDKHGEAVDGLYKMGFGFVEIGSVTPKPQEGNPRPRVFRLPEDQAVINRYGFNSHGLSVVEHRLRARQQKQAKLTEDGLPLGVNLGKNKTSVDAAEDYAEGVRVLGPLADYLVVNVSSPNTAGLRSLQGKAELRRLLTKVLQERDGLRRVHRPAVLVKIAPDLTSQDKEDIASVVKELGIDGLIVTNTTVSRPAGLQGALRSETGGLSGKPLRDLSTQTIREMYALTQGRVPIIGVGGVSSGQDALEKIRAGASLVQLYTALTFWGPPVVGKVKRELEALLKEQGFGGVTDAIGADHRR

Experiments:
recombinant human DHODH = recombinant human DHODH (Homo sapiens, UniProt Q02127); assay: Enzyme reaction inhibition test (DHODH enzyme assay, DCIP quenching); details: read-out: Enzyme reaction inhibitory effect (IC50), DCIP absorbance 600 nm, 50 minutes
Description: The DHODH enzyme assay was carried out with reference to “Benjamin Bader, Wolfgang Knecht, Markus Fries, and Monika Loffler. Expression, Purification, and Characterization of Histidine-Tagged Rat and Human Flavoenzyme Dihydroorotate Dehydrogenase. Protein Expression and Purification, 1998, 13, 414-422.”
The DHODH activity was evaluated using an enzyme assay system that is coupled with an assay in which a blue coloring agent 2,6-dichlorophenol indophenol (DCIP, available from MP Biomedicals, LLC, MP150118) is quenched. […] The enzyme activity was assessed by measuring the decrease in DCIP absorbance (600 nm) for 50 minutes using an EnVision plate-reading spectrophotometer (available from PerkinElmer, Inc.). […]

[1] = tested on: human myeloid leukemia cell line HL60; assay: Cell growth test (Cell Titer Glo); details: read-out: Cell growth inhibitory effect (GI50), HL60 cells, 3 days
Description: The cell growth test was carried out using the human myeloid leukemia cell line HL60 (available from ATCC, CRL-240). As a culture medium of HL60 cells, RPMI 1640 (available from FUJIFILM Wako Pure Chemical Corporation, 189-02025) supplemented with 10% fetal bovine serum (available from Thermo Fisher Scientific, Inc., 10437-028), and 1% penicillin-streptomycin (10,000 U/mL, available from Thermo Fisher Scientific, Inc., 15140-122) was used. HL60 cells were seeded on a 384-well plate (available from Corning Inc., 4588) at a cell density of 1×10^3 cells/20 μL/well. After culturing overnight, 5 μL of the test compound having a predetermined concentration was added, and 3 days later, 25 μL of Cell Titer Glo (registered trademark) Luminescent Cell Viability Assay (available from Promega Corporation, G7573) was added, and then the amount of luminescence was measured using an EnVision plate reader (available from PerkinElmer, Inc.). Since the amount of luminescence is proportional to the intracellular concentration of adenosine triphosphate (ATP), the amount of luminescence was used as an indicator of the number of viable cells. The growth inhibitory concentration for each test compound concentration was calculated by the following expression. […]

IC50 (recombinant human DHODH): < 10 nM | GI50 [1]: < 100 nM
Structure (SMILES): O=C(O)c1nc(C2CC2)cnc1Nc1cccc(C2CCOCC2)c1OC(F)F
